Bioassay records deposited in PubChem BioAssay by National Center for Advancing Translational Sciences (NCATS).
LMNA splice mod: changes lamin A minigene splicing in HeLa cells; AID 1487; Potency, µM (titrated, usually from 46.1 µM), without a hit: top-dose ratio change, negative = inhibition, actives largely listed as inhibitors; 200,000 tested, 0.01% active; HeLa LMNA splicing GFP/RFP minigene ratio, 48 h; active = well fitted inhibition curve with a large enough effect in the signal ratio, with a control signal flat, not every such curve was filed as active; inconclusive = small, poorly fitted or top-dose-only effect, or effect the other way, or a change in a side signal; the % refers to the signal ratio; also: potency is read from the fitted curve at half-maximal effect; % is scaled to controls: 0 for no effect and ±100 for the full control effect
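Read-out is the ratio of GFP to DsRed2 object intensity, acquired by 488 nm laser-scanning cytometry on HeLa lamin A-EGFP minigene reporter cells. Compound incubation 48 hrs at 37 °C in Opti-MEM with 2% FBS; DMSO 0.5% final.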
ALDH1A1 inh: blocks purified human ALDH1A1 activity; Potency, µM (top dose mostly 75.3 µM), for the others: top-dose activity, negative = inhibition, actives largely listed as inhibitors; P00352; 220,000 tested, 7.3% active; Purified ALDH1A1, NADH fluorescence, propionaldehyde substrate; active = well fitted inhibition curve with a large enough effect, not every such curve was filed as active; inconclusive = small, poorly fitted or top-dose-only effect, or another doubt; inactive = no such curve, though single readings can be large or run the other way;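 also: potency is read from the fitted curve at half-maximal effect; plate controls were no enzyme wells and a reference inhibitor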
Sfp PPTase inh: qHTS Assay for Inhibitors of Bacillus subtilis Sfp phosphopantetheinyl transferase (PPTase); actives 3.5% (n = 310,000); AID 1490, 2009; Biochemical Sfp PPTase activity, qHTS; Potency, µM, for inactives: max response, negative = inhibition, usual class: inhibitors; 4'-phosphopantetheinyl transferase ffp (Bacillus subtilis), Q9F4F7; active means well fitted inhibition curve with a large enough effect; inconclusive means small, poorly fitted or top-dose-only effect, or another doubt; inactive means no such curve, though single readings can be large or run the other way;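 further: the enzyme is Sfp with the accession as filed and its product quenches rhodamine fluorescence; potency means the concentration at half of the fitted maximal effect; 0% = enzyme reaction without inhibitor and -100% = no enzyme wells; top concentration of the series not given in the record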
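After 15 min at room temperature with compound, 15 nM Sfp received 5 uM rhodamine-CoA plus 12.5 uM BHQ-2-ybbR (50 mM Hepes pH 7.6, 10 mM MgCl2). Rate came from the fluorescence difference over 30 min, ex 525/em 598 nm.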
KDM4E inh: JMJD2E (human) inhibition. 230,000 tested, 1.6% active. Potency, µM (doses to about 57.1 µM), inactives show at the highest dose activity change, negative = inhibition, most hits filed as inhibitors. JMJD2E catalytic domain, FDH-coupled NADH fluorescence (FDH is formaldehyde dehydrogenase). B2RXH2; active = well fitted inhibition curve with a large enough effect, not every such curve was filed as active; inconclusive = small, poorly fitted or top-dose-only effect, or another doubt; inactive = no such curve, though single readings can be large or run the other way;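 also: potency is read from the fitted curve at half-maximal effect; 0% = wells with enzyme and -100% = buffer wells without enzyme; nearly all actives have a fitted effect of over 50% in size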
G9a block: inhibitors of human histone lysine methyltransferase G9a; G9a H3K9 monomethylation, AlphaScreen, 2 h; Potency, µM (doses to about 102 µM), without a hit: top-dose activity, negative = inhibition, usual class: inhibitors; Q96KQ7; 350,000 tested, 8.8% active; also: potency is read from the fitted curve at half-maximal effect; % is scaled to controls: 0 for no effect and ±100 for the full control effect; nearly all actives have a fitted effect of over 75% in size
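G9a (20 nM) preincubated 15 min RT with compounds, then 500 nM biotinylated H3K9 peptide and 20 uM SAM added; 2 h RT reaction. Monomethyl-H3K9 product detected by AlphaScreen with anti-H3K9me1 antibody, streptavidin donor and anti-rabbit IgG acceptor beads.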
miR-21 reporter: miR-21 reporter, rising signal; HeLa miR-21 FLuc reporter, luciferase, 48 h; Potency, µM (top dose mostly 38.3 µM), without a hit: at the top dose reporter change, positive = more light; 340,000 tested, under 10 active; active = well fitted rising curve with a large enough effect; inconclusive = small, poorly fitted or top-dose-only effect; inactive = no such curve, though single readings can be large or run the other way;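 note: % of control where 0% means no effect; miR-21 action dims this reporter so a rising signal means less miR-21 action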
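HeLa cells endogenously expressing miR-21, stably carrying CMV-driven firefly luciferase with a downstream miR-21 binding site, 2000 cells/well. Titrations up to approximately 40 uM, 48 hours; luciferase luminescence read.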
An asterisk follows results filed as active; ? = inconclusive; nt = no result given; [ ] = dose if it differs, or a comment. Hits are enriched below; roughly 13% of the tested compounds scored in any of these assays. Unless noted, calls follow the shape of the dose curve; as a rule, active = well fitted curve in the direction sought with a large enough effect; inconclusive = small, poorly fitted or top-dose-only effect, or another doubt; inactive = no such curve, though single readings can be large; an effect the other way counts as inactive or inconclusive.

SMILES	LMNA splice mod	ALDH1A1 inh	Sfp PPTase inh	KDM4E inh	G9a block	miR-21 reporter
CCN1C(=S)SC(=O)C1=C1C=C(C)N(CCO)C(C)=C1	-1%	16µM*	?	-12%	?	-50%
CCN1C(=S)SC(=O)C1=C1C=C(C)N(CCOC)C(C)=C1	?	6.3µM*	50µM*	-8%	?	-49%
Cc1ccc(C)c(N2CCN(C(=O)c3cc4c(=O)n(Cc5cccnc5)ccc4nc3C)CC2)c1	4%[46 µM]	nt	nt	nt	-3%[59 µM]	8%
O=C(Nc1cccc(NC(=O)c2ccc(Br)o2)c1)c1ccccc1	nt	nt	-6%	nt	-4%	-5%
O=C(Nc1ccc(N2CCN(C(=O)c3ccccc3)CC2)c(Cl)c1)c1ccc(Br)o1	?	?	6%	?	45µM*	?
O=C(c1ccccc1)c1cccc(NC(=O)c2ccc(Br)o2)c1	?	?	16%	-5%	45µM*	-11%
O=C(/C=C/c1ccccc1)NC(=S)Nc1ccc(N2CCOCC2)c(Cl)c1	6%	1%	20%	0%	-6%	-1%
O=C(NC(=S)Nc1ccc(N2CCOCC2)c(Cl)c1)C(c1ccccc1)c1ccccc1	5%	11µM*	14%	1%	-48%[59 µM]	2%
Cc1ccc(C)c(C(=O)OCC(=O)Nc2ccc(N3CCOCC3)cc2)c1	nt	2%	7%	-3%	0%	5%
O=C(COC(=O)c1ccc(Br)o1)Nc1ccc(N2CCOCC2)cc1	nt	nt	nt	nt	22µM*	nt
CSc1nn(Cc2ccc(Br)cc2)c(N(C(C)=O)C(C)=O)c1S(=O)(=O)c1ccccc1	nt	nt	nt	nt	8%[59 µM]	22%
CCN(CC)C(=O)C1=CC(c2ccc3c(c2)OCO3)=NS(=O)(=O)N1C	nt	nt	nt	nt	-26%[59 µM]	-16%
O=C(Nc1ccc(N2CCOCC2)c(Cl)c1)c1ccc(Br)o1	?	25µM*	-24%	1%	-50%[12.7 µM]	-14%
CCN(CC)c1ccc(NC(=O)c2ccc(Br)o2)cc1	-8%	-8%	-2%	3%	2.2µM*	-44%
CN1CCN(c2ccc(NC(=O)c3ccc(-c4ccc(Br)cc4)o3)cc2)CC1	nt	-1%	?	-11%	32µM*	?
O=C(CNC(=O)c1ccc(Br)o1)Nc1ccc(F)c(S(=O)(=O)N2CCOCC2)c1	nt	nt	nt	nt	45µM*	nt
CC(=O)N1CCc2c(sc3c2c(=O)n(-c2ccccc2)c(=O)n3CC(=O)c2ccc(F)cc2)C1	nt	nt	nt	nt	4%[59 µM]	-12%
CCOc1ccc(OCC)c(NC(=O)C2CCCN(S(=O)(=O)c3cc(Br)cc4c3N(C(=O)CC)CC4)C2)c1 (stereo unspecified)	nt	nt	nt	nt	-19%[59 µM]	0%
Cc1cc2ccccc2c[n+]1CC(O)C[n+]1cc2ccccc2cc1C	nt	0%[13.5 µM]	nt	nt	nt	nt
O=C(Nc1ccc(N2CCN(C(=O)c3ccccc3)CC2)cc1)c1cc2ccccc2o1	-3%	?	8%	?	9%[59 µM]	23%
O=C(Nc1ccc(N2CCN(C(=O)c3ccccc3)CC2)cc1)c1ccc(Br)o1	-22%	-6%	0%	5%	32µM*	16%
Cc1cc(N2CCCCC2)nc2ccc(NC(=O)c3ccc(Br)o3)cc12	?	?	5%	?	50µM*	6%
COc1ccc(-c2ccc(NC(=O)c3ccc(Br)o3)cc2)nn1	nt	nt	nt	nt	45µM*	nt
COC(=O)Cc1ccc(NC(=O)c2ccc(Br)o2)cc1	6%	2%	0%	3%	-29%[12.7 µM]	-53%
O=C(Nc1ccc(N2CCCC2)cc1)c1ccc(Br)o1	-4%	?	?	-5%	2.2µM*	-55%
CCN1CCN(c2ccc(NC(=O)c3ccc(Br)o3)cc2)CC1	nt	nt	16%	nt	-2%	-44%
O=C(NCc1ccccn1)C1CCN(S(=O)(=O)c2cc(Cl)ccc2Cl)CC1	nt	-2%	5%	5%	120%[59 µM]	9%
COc1ccc(/C=N/N2CCOCC2)cc1Cn1cc([N+](=O)[O-])cn1	nt	nt	6%	5%	-6%[12.7 µM]	1%
C/C(=C\c1ccccc1)CN1CCC(C(=O)N2CCCC(C)C2)CC1 (stereo unspecified)	nt	-3%	-7%	?	13µM*	-8%
CCN(Cc1ccccc1)C(=O)C1CCN(Cc2ccc(SC)cc2)CC1	-4%[46 µM]	-3%	8%	2%	0%	-8%
CC1CCCN(C(=O)CCc2ccccc2)C1 (stereo unspecified)	11%	-13%	-2%	-7%	-8%[59 µM]	-27%
CCN(Cc1ccccc1)C(=O)C1CCN(C/C(C)=C/c2ccccc2)CC1	-10%	-7%	-1%	?	35µM*	-9%
CC(C)(C)n1nc2c(c1NC(=O)Cc1ccc(Cl)cc1)CS(=O)(=O)C2	nt	nt	8%	nt	30%	-1%
CCOc1ccc(CC(=O)Nc2c3c(nn2C(C)(C)C)CS(=O)(=O)C3)cc1	nt	nt	1%	nt	79µM*	-1%
COCCNC(=O)c1nc2c(nnn2Cc2cc(C)ccc2C)c(=O)[nH]1	-3%	?	?	-6%	11µM*	-7%
Cc1ccc(C)c(Cn2nnc3c(=O)[nH]c(C(=O)NCC4CCCO4)nc32)c1 (stereo unspecified)	-13%	-11%	-14%	0%	-10%[59 µM]	-25%
CC(Sc1nnc2n1CCCCC2)C(=O)Nc1ccc(S(N)(=O)=O)cc1 (stereo unspecified)	nt	nt	nt	nt	45µM*	nt
O/N=C1\CCC\C1=C/c1ccco1	12%	-12%	17%	-7%	56µM*	-10%
O=C(Nc1ccc2ccccc2c1)[C@H]1C[C@@H]1[C@H](NP(=O)(c1ccccc1)c1ccccc1)c1ccccc1	nt	-2%	17%	-28%	nt	nt
O=C(COc1ccc(S(=O)(=O)N2CCOCC2)cc1)Nc1ccccc1Cl	nt	nt	10%	nt	14%	6%
NC(=O)C1CCN(C(=S)c2ccc(-c3ccc(Br)cc3)o2)CC1	nt	-6%	16µM*	-21%	35µM*	-57%
O=C(O)c1ccc(-c2ccc(-c3ccccc3)cc2)o1	nt	?	?	nt	35µM*	nt
NC(=O)c1ccc(-c2ccc(Br)cc2)o1	?	?	-11%	?	50µM*	-57%
Cc1ccccc1C(=O)Nc1cccc(NC(=O)c2ccc(-c3ccc(Br)cc3)o2)c1	8%	?	?	?	8%[2.33 µM]	-5%
Cc1ccc(-c2ccc(C(=O)O)o2)cc1Cl	nt	nt	-5%	?	nt	-32%
Cc1ccc(S(=O)(=O)NC(=O)c2ccc(-c3ccc(-c4ccccc4)cc3)o2)c(C)c1	8%	?	-14%	?	40µM*	-9%
Cc1c(C(=O)N2CCC(C(N)=O)CC2)oc2ccc(Br)cc12	nt	nt	nt	nt	-11%	nt
CC12CCC(=O)N1C(C(=O)NCc1ccc(Cl)cc1Cl)CS2 (stereo unspecified)	nt	nt	nt	nt	-3%	nt
O=C(Cn1c(=O)n(CCc2ccccc2)c(=O)c2cccnc21)Nc1ccc(F)cc1	nt	nt	nt	nt	5%[59 µM]	-6%

Fetched by structure from the entries so far:
SMILES	LMNA splice mod	ALDH1A1 inh	Sfp PPTase inh	KDM4E inh	G9a block	miR-21 reporter
CC1CCCN(C(=O)CCc2ccccc2)C1 (stereo unspecified)	11%	-13%	-2%	-7%	-8%[59 µM]	-27%
COc1ccc(/C=N/N2CCOCC2)cc1Cn1cc([N+](=O)[O-])cn1	nt	nt	6%	5%	-6%[12.7 µM]	1%
O=C(Nc1ccc(N2CCN(C(=O)c3ccccc3)CC2)c(Cl)c1)c1ccc(Br)o1	?	?	6%	?	45µM*	?
CCN(Cc1ccccc1)C(=O)C1CCN(C/C(C)=C/c2ccccc2)CC1	-10%	-7%	-1%	?	35µM*	-9%
CC(=O)N1CCc2c(sc3c2c(=O)n(-c2ccccc2)c(=O)n3CC(=O)c2ccc(F)cc2)C1	nt	nt	nt	nt	4%[59 µM]	-12%
